Laboratory results published in PMC7563123 (Biomolecules, 2020).

Assays:
Conditions in all cases: both partners purified
[1] = molecular target: T1, amyloid beta peptide 1-42 (Aβ1–42) (human, UniProt P05067 672-713); assay: SPR; oligomeric Aβ1–42 (Preparation A, dilution of the stock), 1.1-0.055 μM, flowed over cypD or 17β-HSD10 captured by immobilised antibody; running buffer RB1 (10 mM HEPES pH 7.4, BSA 200 μg/mL, 5 mM Na+, 140 mM K+, 1 mM Mg2+); 25 °C, 20 µL/min; global fit, 1:1 Langmuir model
T1 construct: amyloid beta peptide of 42 amino acids, human, produced from amyloid precursor protein; numbers count on: the Aβ peptide; One peptide used in two states; Preparation B (NaOH) is called monomeric, though it might hold monomers and low oligomers; Preparation A (plain dilution of the stock) is called oligomeric, and the size of the oligomers is not determined; The states are told apart by the …

[2] = molecular target: T2, amyloid beta peptide 1-40 (Aβ1–40) (human, UniProt P05067 672-711); assay: SPR; monomeric Aβ (Aβ1–40 by Preparation C, HFIP; Aβ1–42 by Preparation B, NaOH), five concentrations, flowed over cypD or 17β-HSD10 captured by immobilised antibody; running buffer RB1 (10 mM HEPES pH 7.4, BSA 200 μg/mL, 5 mM Na+, 140 mM K+, 1 mM Mg2+); 25 °C, 20 µL/min; global fit, 1:1 Langmuir model
T2 construct: amyloid beta peptide of 40 amino acids, human, produced from amyloid precursor protein; numbers count on: the Aβ peptide; Stock dissolved in 1% NH4OH and diluted by PBS to 100 μM; Preparation C (HFIP) is called monomeric, though it might hold monomers and low oligomers; also called monomeric Aβ_(1–40); source: synthetic peptide, bought: AnaSpec

[3] = molecular target: T1, amyloid beta peptide 1-42 (Aβ1–42); assay: as above

Kd [1]: 8 ± 3.7 nM
koff [1]: 3.1e-05 s⁻¹
kon [1]: 4040 M⁻¹ s⁻¹
Kd [2]: 74.5 ± 1.8 nM
koff [2]: 4.7e-05 s⁻¹
kon [2]: 630 M⁻¹ s⁻¹
Kd [3]: 181 ± 16 nM
koff [3]: 0.000112 s⁻¹
kon [3]: 650 M⁻¹ s⁻¹
B1: 17β-hydroxysteroid dehydrogenase type 10 (17β-HSD10), human recombinant, commercial (enzyme, UniProt Q99714 1-261, looked up)
chain: MAAACRSVKGLVAVITGGASGLGLATAERLVGQGASAVLLDLPNSGGEAQAKKLGNNCVFAPADVTSEKDVQTALALAKGKFGRVDVAVNCAGIAVASKTYNLKKGQTHTLEDFQRVLDVNLMGTFNVIRLVAGEMGQNEPDQGGQRGVIINTASVAAFEGQVGQAAYSASKGGIVGMTLPIARDLAPIGIRVMTIAPGLFGTPLLTSLPEKVCNFLASQVPFPSRLGDPAEYAHLVQAIIENPFLNGEVIRLDGAIRMQP
notes: 17β-hydroxysteroid dehydrogenase 10, human recombinant, NCBI Gene ID 3028; Commercial protein; It was held on the chip by an immobilised anti-17β-HSD10 antibody; also called 17β-HSD10_(commercial); source: bought: Fitzgerald
